How the values were obtained:
Assay in all cases: Histone peptide microarray
Assay type in all cases: binding, human
[1] = system: MLL5; settings: sheet "Array Heatmap"; GST-tagged MLL5; arrays performed twice, total replicate number n = 4
Text: (§1) To more comprehensively define the histone interactions of the 31 PHD readers identified from the domain microarray analyses, we probed each on an alternate microarray platform containing a library of 293 synthetic histone peptides with single or combinatorial PTMs (Additional file 2: Figure S4 and Additional file 3: Table S2). […] In general, the 31 PHD fingers were confirmed to associate with the H3 tail with the same H3K4 methyl preferences as in the domain microarrays (Fig. 2; Additional file 3: Table S2). […] In addition, we confirmed the newly identified interactions observed with the domain microarrays for PHRF1 and TRIM66 (Fig. 2).
(§2) The 31 GST-tagged PHD readers identified in the PHD finger domain array were expressed and purified as previously. Histone peptide arrays and peptide pulldown assays were conducted as recently described (specifically, the optimized protocol from Petell et al. for the former).
(§3) Supplementary file 13072_2020_328_MOESM3_ESM.xlsx: Additional file 3: Table S2. Histone Peptide Microarray Results. Excel Tab Peptide List is a compiled list of the entire 293 histone peptide library with amino acid sequence ranges. Excel Tab Peptide Array Grid Map is a table representing the pattern in which peptides have been printed for the peptide microarray. Each number corresponds to the peptide number designated in Peptide List. Excel Tab Average Signals is a compiled set of binding data: chromatin reader at 0.5 μM vs. entire 293 peptide library. Data is presented as the average and standard deviation of 4 replicates. The average signals are colored to indicate signal intensity with green being strong and white being weak/low. […] Key: red= stronger relative binding; blue = weaker relative binding. Excel Tab Array info summary is a table summarizing the domains, sequence coverage, array signal range, and noise for each of the GST-tagged readers assayed on the peptide microarrays.

[2] = system: AIRE (PP); settings: sheet "Array Heatmap"; GST-tagged AIRE (PP); arrays performed twice, total replicate number n = 4
Text: as §1, §2, §3

[3] = system: KDM5A (1); settings: sheet "Array Heatmap"; GST-tagged KDM5A (1); arrays performed twice, total replicate number n = 4
Text: as §1, §2, §3

[4] = system: CHD4 (PPCC); settings: sheet "Array Heatmap"; GST-tagged CHD4 (PPCC); arrays performed twice, total replicate number n = 4
Text: as §1, §2, §3

[5] = system: PHRF1 (RP); settings: sheet "Array Heatmap"; GST-tagged PHRF1 (RP); arrays performed twice, total replicate number n = 4
Text: as §1, §2, §3

[6] = system: DPF2 (PPC2W2); settings: sheet "Array Heatmap"; GST-tagged DPF2 (PPC2W2); arrays performed twice, total replicate number n = 4
Text: as §1, §2, §3

[7] = system: KDM5A (3); settings: sheet "Array Heatmap"; GST-tagged KDM5A (3); arrays performed twice, total replicate number n = 4
Text: as §1, §2, §3

[8] = system: ING3; settings: sheet "Array Heatmap"; GST-tagged ING3; arrays performed twice, total replicate number n = 4
Text: as §1, §2, §3

[9] = system: CHD5 (PCC); settings: sheet "Array Heatmap"; GST-tagged CHD5 (PCC); arrays performed twice, total replicate number n = 4
Text: as §1, §2, §3

[10] = system: PHF2; settings: sheet "Array Heatmap"; GST-tagged PHF2; arrays performed twice, total replicate number n = 4
Text: as §1, §2, §3

[11] = system: TRIM66 (PB); settings: sheet "Array Heatmap"; GST-tagged TRIM66 (PB); arrays performed twice, total replicate number n = 4
Text: as §1, §2, §3

[12] = system: TAF3; settings: sheet "Array Heatmap"; GST-tagged TAF3; arrays performed twice, total replicate number n = 4
Text: as §1, §2, §3

[13] = system: RAG2; settings: sheet "Array Heatmap"; GST-tagged RAG2; arrays performed twice, total replicate number n = 4
Text: as §1, §2, §3

[14] = system: ING5; settings: sheet "Array Heatmap"; GST-tagged ING5; arrays performed twice, total replicate number n = 4
Text: as §1, §2, §3

[15] = system: CHD5 (PPCC); settings: sheet "Array Heatmap"; GST-tagged CHD5 (PPCC); arrays performed twice, total replicate number n = 4
Text: as §1, §2, §3

H3K9me2 (1-15): H3 1-15 was tested, and the “Array Heatmap signal, MLL5” value [1] was 0.5365, the “Array Heatmap signal, AIRE (PP)” value [2] was 0.4373 and the “Array Heatmap signal, KDM5A (1)” value [3] was 0.4531. The “Array Heatmap signal, CHD4 (PPCC)” value [4] was 0.5681, the “Array Heatmap signal, PHRF1 (RP)” value [5] was 0.5113 and the “Array Heatmap signal, DPF2 (PPC2W2)” value [6] was 0.6348. For the same substance, the “Array Heatmap signal, KDM5A (3)” value [7] was 0.4311, the “Array Heatmap signal, ING3” value [8] was 0.474 and the “Array Heatmap signal, CHD5 (PCC)” value [9] was 0.8159. The “Array Heatmap signal, PHF2” value [10] was 0.4798, the “Array Heatmap signal, TRIM66 (PB)” value [11] was 0.7556 and the “Array Heatmap signal, TAF3” value [12] was 0.2478. For the same substance, the “Array Heatmap signal, RAG2” value [13] was 0.2519, the “Array Heatmap signal, ING5” value [14] was 0.3284 and the “Array Heatmap signal, CHD5 (PPCC)” value [15] was 0.5349.
